## scFv variants of Ab-14 (light chain) against a SARS-CoV-2 spike peptide

Target: peptide PDVDLGDISGINAS, taken from heptad repeat 2 (HR2) of SARS-CoV-2 spike.

Parent: Ab-14, a human scFv built as VH, the linker GGGGSGGGGSGGGGS, VL. Only the CDRs of the light chain vary.
VH: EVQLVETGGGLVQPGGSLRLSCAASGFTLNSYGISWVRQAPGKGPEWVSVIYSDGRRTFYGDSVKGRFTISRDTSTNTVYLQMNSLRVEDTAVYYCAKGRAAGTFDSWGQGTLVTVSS
VL: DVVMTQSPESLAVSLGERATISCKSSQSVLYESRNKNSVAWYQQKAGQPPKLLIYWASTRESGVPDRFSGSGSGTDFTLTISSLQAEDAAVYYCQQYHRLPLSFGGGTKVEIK

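The parent was found by panning a naive human phage display library on the peptide. Designed CDR sequences, proposed from the first random library and measured here. Their group label is 14L_En_Gen (En: ensemble of fine-tuned language models; Gen: genetic algorithm). AlphaSeq pools MATa yeast showing the antibodies with MATalpha yeast showing the peptide. Mating (16 h, 30 °C) was followed by selection of diploids and sequencing of their barcodes. Each replicate has its own calibration line, from reference interactions of the BCL2 family. Mating was done six times.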

Variants are written as CDR1, CDR2 and CDR3 of the light chain (limits as in the source). Parent: KSSQSVLYESRNKNSVA, WASTRES, QQYHRLPLS.
The read-out is the apparent dissociation constant on a log10 scale (nM): the lower, the stronger.
"nd" marks a missing value. The strain was present, yet no cells mated with the target were sequenced in that replicate, which points to weak or no binding.

MISQLMNMGSFAINSVA / QASLRNE / QQYDRLPLT: 0.89, 1.19, 1.53, 1.07, 0.90, 1.75 (controls 0 of 18).
HITYGMQVAGRHSKSIA / QAEERAK / QQYDRLPLA: 0.24, 0.31, 0.37, 0.40, -0.14, 0.04 (controls 1 of 18).
QIYQAMHTLMQMKNNVA / DVNERGD / QQYFRLPLS: 0.40, 0.14, 0.28, 0.09, 0.10, 0.40 (controls 1 of 18).
KVSVFMRGLTQRKDSIA / DNNTRQN / QQYDRLPLS: 0.61, 0.78, 0.83, 1.05, 0.88, 1.08 (controls 1 of 18).
IVSQLMLWGHLAKNSIA / EAQTRLN / QQYDRLPLM: 2.10, 1.38, 0.67, 2.21, 1.24, 1.61 (controls 1 of 18).
KLQSVTGTEKVHGNNVA / EMETRER / QQYNRLPLA: 0.47, 0.79, 0.80, 0.57, 0.72, 0.58 (controls 1 of 18).
MISQILNMGSFAINSVA / QASLRNE / QQYDRLPLM: 0.76, 0.57, 0.18, 0.35, 0.54, 0.54 (controls 2 of 18).
TISQMTSLFSQTINNVA / EVSTREP / QQYDRLPLT: 1.07, 0.99, 0.54, 0.45, 0.76, 1.21 (controls 1 of 18).
KISQMTRVGITHGNSIA / EEVTRAK / QQYHRLPLA: 1.48, 1.48, 2.40, 1.72, 2.27, 3.00 (controls 0 of 18).
HLSMLTHVESGVKNNVA / QMETREE / QQYDRLPLS: 0.81, 1.09, 1.22, 0.73, 1.63, 0.97 (controls 0 of 18).
MISQLYQMGSFAINSVA / QASLRNE / QQYDRLPLM: 1.21, 1.24, 1.49, 1.47, 1.43, 1.70 (controls 0 of 18).
TLYGLSNSMSKNKNNVA / EMSTREP / QQYDRLPLE: 0.16, -0.09, 0.07, -0.17, 0.00, 0.27 (controls 1 of 18).
KISQMVRVGTTHGNSIA / EEATRAK / QQYHRLPLA: 0.54, 0.25, -0.03, 0.28, 0.80, 0.55 (controls 0 of 18).
KLSMITGHSLMSKNNVA / EMETREN / QQYDRLPLS: 0.56, 0.35, -0.14, 0.45, 0.48, 0.30 (controls 0 of 18).
MISQIYNMGQFAINSVA / QASLRND / QQYDRLPLM: 2.24, 2.28, 2.32, 1.98, 2.31, 1.47 (controls 1 of 18).
KLSMITGHMSTQKNNVA / EMVTREE / QQYNRLPLA: 0.62, 0.62, 0.20, 0.32, 0.29, 0.68 (controls 0 of 18).
IVSQLMLWGYHAKNSIA / EAHTRLN / QQYDRLPLF: nd, 1.74, nd, nd, nd, nd (controls 0 of 18).
HMSFLTLGGMRQKNSVA / QMTTREN / QQYDRLPLV: 1.25, 0.39, 0.69, 0.66, 0.38, 0.71 (controls 0 of 18).
KIGMTLNQLLHQKNNVA / DLVMRES / QQYHRLPLS: 3.52, 2.11, 2.05, 2.16, 1.00, 2.04 (controls 1 of 18).
KIGMTLNTLMHQKNNVA / DLVEREN / QQYFRLPLS: 0.32, 0.78, 0.52, 0.72, 0.90, 1.38 (controls 0 of 18).
KLRTVTGTEKVKGNNVA / EMETRER / QQYNRLPLS: 0.58, 0.25, 0.51, 0.24, 0.32, 0.40 (controls 4 of 18).
MISQLMNLGQFAINSVA / QASIRNE / QQYDRLPLV: 2.29, 2.37, 0.58, 1.39, 2.02, 1.73 (controls 0 of 18).
HITYGMQVAGRHSKSIA / QAEERAH / QQYDRLPLA: 1.29, 0.66, 1.46, 0.94, 1.16, 0.67 (controls 2 of 18).
MISQVMNTLTRYGNNVA / DLENRED / QQYFRLPLS: 2.35, 2.27, 2.06, 1.61, 2.29, 1.45 (controls 0 of 18).
MLSSVLHMAGVKKNSIA / DLVLRAN / QQYHRLPLS: 2.29, 2.23, 1.16, 1.16, 1.52, 2.01 (controls 1 of 18).
TISQMTTSFSQNINNVA / EVSTREK / QQYDRLPLS: 0.46, 0.39, 0.55, 0.92, 0.64, 0.76 (controls 0 of 18).
KVSEFMRGLTQRKDSIA / DNNTRGS / QQYDRLPLS: 1.39, 1.43, 1.55, 0.86, 1.75, 1.72 (controls 0 of 18).
MISQIYNMGQFAINSVA / QASTRNQ / QQYDRLPLM: 1.67, 0.82, 0.57, 0.93, 0.63, 0.89 (controls 0 of 18).
MISQLYNMGSFAINSVA / QASTRNA / QQYDRLPLM: 1.37, 1.03, 0.51, 1.62, 1.39, 1.06 (controls 1 of 18).
QISGIQGHMSTIKNNVA / EMVTRAN / QQYERLPLS: -0.69, -0.91, -1.82, -1.76, -2.41, -1.51 (controls 0 of 18).
IVSQMMLWGMHLKNSIA / EAQTRLN / QQYDRLPLI: 1.89, 0.36, 0.45, 3.58, 1.50, nd (controls 0 of 18).
TISGMMNSAASKHNSVA / NVTMRPQ / QQYHRLPLS: 1.40, 0.86, 1.17, 0.92, 1.47, 1.34 (controls 1 of 18).
KFSMMSNSMQVSKSAVA / EMSTRPE / QQYNRLPLA: 0.77, 0.65, 0.33, 0.64, 0.58, 0.42 (controls 1 of 18).
KFSQMVNTMSVSKSAVA / EMSTRPE / QQYNRLPLA: 0.71, 1.31, 0.46, 0.18, 0.84, 0.81 (controls 0 of 18).
HMSALTLGGMRARNSVA / QMTTREN / QQYDRLPLA: 1.98, 0.29, 0.48, 0.97, 0.38, 0.39 (controls 0 of 18).
MISQLYNMGQFAINSVA / QASVRNE / QQYDRLPLE: nd, nd, nd, 1.27, nd, nd (controls 0 of 18).
KLSTVTGTEKVKGNNVA / EMETRER / QQYNRLPLA: 0.47, 0.70, 0.02, 0.29, 1.06, -0.29 (controls 0 of 18).
KISQMQRVGSTHSNSIA / EEATRAK / QQYHRLPLA: 1.10, 1.03, 1.18, 1.57, 1.09, 1.49 (controls 4 of 18).
NIYQAMHTLMQARNNVA / DVTERNN / QQYFRLPLS: 0.18, 0.46, -0.01, 0.55, 0.42, 0.30 (controls 0 of 18).
KLSMVTGHMKMAKNNVA / EMVTREE / QQYDRLPLS: nd, nd, nd, nd, nd, 1.93 (controls 0 of 18).
TISMVMNHMTREKNNVA / NMDMREE / QQYDRLPLS: 0.13, -0.09, -0.22, -0.03, 0.00, 0.16 (controls 2 of 18).
KIGMTLNQLQEKKNNVA / DLVHREN / QQYHRLPLS: -0.03, -0.11, -0.13, -0.33, 0.12, -0.11 (controls 0 of 18).
MISQIYNMGSFAINSVA / QASERNE / QQYDRLPLM: 0.85, 0.89, 0.36, 1.08, nd, 1.32 (controls 0 of 18).
MISQILNMGQFAINSVA / QASLRCN / QQYDRLPLI: 3.41, 1.39, 2.29, 1.48, 1.72, 1.45 (controls 1 of 18).
KLSMTHGMELKNRNSVA / ELVTRMS / QQYNRLPLS: 1.76, 1.19, 1.77, nd, 2.05, 1.27 (controls 0 of 18).
HITYGMYVSGRHHSSIA / QAETRAK / QQYDRLPLI: 1.34, 1.57, 1.41, 1.67, 1.34, 1.77 (controls 0 of 18).

Repeated from above, the 3 best binders with a signal in all replicates:

CDR-L1	CDR-L2	CDR-L3	log10 Kd, replicates	control signals
QISGIQGHMSTIKNNVA	EMVTRAN	QQYERLPLS	-0.69, -0.91, -1.82, -1.76, -2.41, -1.51	0 of 18
KIGMTLNQLQEKKNNVA	DLVHREN	QQYHRLPLS	-0.03, -0.11, -0.13, -0.33, 0.12, -0.11	0 of 18
TISMVMNHMTREKNNVA	NMDMREE	QQYDRLPLS	0.13, -0.09, -0.22, -0.03, 0.00, 0.16	2 of 18

As a blank, each scFv also met three strains without target: over all light chain designs, 4% of these pairings were detected, typically at 2.64 and seldom below 1.59. Also given: how often the same scFv was detected with the empty control strains.
A sequence measured in both rounds can read differently, since the two assays cover different ranges.
The authors' rule: three or more of the six replicates give a measured affinity, fewer mean a poor binder.
The parent sequence was in this pool as ten entries: three were never detected, three once, and four in most replicates, with averages from 0.34 to 2.37.

Data: MIT Lincoln Laboratory AlphaSeq set, Li et al. 2023, doi:10.1038/s41467-023-39022-2, as distributed in FLAb.